Experimental data: patent US8809350B2, “Purine and pyrimidine CDK inhibitors and their use for the treatment of autoimmune diseases” (priority 2004, dated 2014)

By UniProt entry, the sequences of proteins in these tests, tags left out. Where a name states a change or a piece, a line headed by the entry shows the natural chain unless it says otherwise.
UniProt P11802: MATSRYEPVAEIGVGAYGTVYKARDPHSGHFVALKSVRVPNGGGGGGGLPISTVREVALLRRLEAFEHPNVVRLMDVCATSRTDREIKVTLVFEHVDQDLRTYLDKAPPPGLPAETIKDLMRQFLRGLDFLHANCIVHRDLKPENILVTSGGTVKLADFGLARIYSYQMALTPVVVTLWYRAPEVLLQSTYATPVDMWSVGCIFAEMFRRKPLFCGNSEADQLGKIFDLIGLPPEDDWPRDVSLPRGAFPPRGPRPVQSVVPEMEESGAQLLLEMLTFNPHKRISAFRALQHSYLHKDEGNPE

Molecular target: CDK4D1 (Homo sapiens, UniProt P11802)
Assay: In-house kinase assay (32P incorporation)
Type: biochemical

IC50: > 100 µM
Compound: Cn1cnc2c(NCc3ccccc3)nc(NCCO)nc21 [Compound 3]
